SMILES strings stand for the structures. Only a part is listed here, and it is no random draw. Some structures show a salt or complex split into parts, the way the source records it. The source made the active and inactive calls. Calls follow the shape of the dose curve; as a rule, active = well fitted activation curve with a large enough effect; inconclusive = small, poorly fitted or top-dose-only effect; inactive = no such curve, though single readings can be large or run the other way.

Chains of the proteins cited; added tags and fusions are not shown.
UniProt Q8WZA2, whole entry: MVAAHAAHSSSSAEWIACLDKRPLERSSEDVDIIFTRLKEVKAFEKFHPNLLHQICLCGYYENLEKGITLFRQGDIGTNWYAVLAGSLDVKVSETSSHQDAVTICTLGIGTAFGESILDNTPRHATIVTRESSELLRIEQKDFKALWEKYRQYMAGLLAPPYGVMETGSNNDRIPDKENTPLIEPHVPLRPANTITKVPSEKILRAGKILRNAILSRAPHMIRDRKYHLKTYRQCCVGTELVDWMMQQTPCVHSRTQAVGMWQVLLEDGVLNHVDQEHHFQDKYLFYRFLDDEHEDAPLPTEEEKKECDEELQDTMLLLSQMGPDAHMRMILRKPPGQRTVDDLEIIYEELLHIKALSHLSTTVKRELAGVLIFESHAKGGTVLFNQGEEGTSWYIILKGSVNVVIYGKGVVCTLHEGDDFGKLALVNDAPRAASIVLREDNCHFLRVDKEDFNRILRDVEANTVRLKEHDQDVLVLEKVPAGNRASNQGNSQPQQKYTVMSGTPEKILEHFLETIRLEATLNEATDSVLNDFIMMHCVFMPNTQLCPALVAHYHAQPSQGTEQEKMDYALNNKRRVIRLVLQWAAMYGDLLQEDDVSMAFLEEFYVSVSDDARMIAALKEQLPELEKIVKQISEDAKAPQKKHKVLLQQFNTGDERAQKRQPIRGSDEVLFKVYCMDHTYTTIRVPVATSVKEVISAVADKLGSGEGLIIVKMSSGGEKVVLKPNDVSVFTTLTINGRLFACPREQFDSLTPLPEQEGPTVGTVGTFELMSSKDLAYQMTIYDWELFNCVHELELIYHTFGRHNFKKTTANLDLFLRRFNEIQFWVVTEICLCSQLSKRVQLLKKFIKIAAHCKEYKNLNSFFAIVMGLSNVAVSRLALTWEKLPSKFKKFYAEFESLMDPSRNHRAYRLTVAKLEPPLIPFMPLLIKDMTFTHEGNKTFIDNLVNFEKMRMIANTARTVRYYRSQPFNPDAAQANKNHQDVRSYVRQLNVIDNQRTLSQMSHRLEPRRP

For the experiment, the target named is Rap guanine nucleotide exchange factor 4 (Homo sapiens) (UniProt Q8WZA2). The experiment in a line: qHTS for Agonist of cAMP-regulated guanine nucleotide exchange factor 4 (EPAC2): primary screen. Also: nearly all actives have a fitted effect of over 50% in size. The settings on record: biochemical qHTS, 100% = 6.5 mM cAMP response; at 154 µM (top of the series). An excerpt:
In multi-cellular eukaryotic organisms, the effects of cAMP are transduced by two ubiquitously-expressed intracellular cAMP receptors, the classic protein kinase A/cAMP-dependent protein kinase (PKA/cAPK) and the more recently discovered exchange protein directly activated by cAMP/cAMP-regulated guanine nucleotide exchange factor (EPAC/cAMP-GEF). Both PKA and EPAC are ubiquitously expressed in all tissues, and an increase in intracellular cAMP levels will lead to the activation of both PKA and EPAC. Therefore, careful dissections of the individual role and relative contribution of EPAC and PKA within the overall cAMP signaling in various model systems are critical for further elucidating the mechanism of cAMP signaling. To date no EPAC-specific antagonists and agonist, as well as isoform-specific agonists have been reported, and developing EPAC-specific pharmacological probes to determine the physiological functions that EPAC play in the overall cAMP-mediated signaling remains a major challenge within the research field. Furthermore, identified regulators of EPAC may lead to new mechanism-based therapeutic strategies specifically targeting the EPAC / cAMP-signaling components as EPAC has been implicated to play important roles in major human pathological conditions such as diabetes, heart disease, and cancer.
This qHTS will be used to screen the Molecular Libraries Small Molecule Repository (MLSMR) as a concentration-titration series using the NCGC unique quantitative screening (qHTS) platform to find activators for EPAC2. In addition, this assay will also be used as a counterscreen for the EPAC1 qHTS. This fluorescent based assay is developed and validated for EPAC2 that measures exchange using EPAC effector Rap1 complex with BODIPY-GDP, a GDP analog with a tethered fluorophores. Activators are identified by monitoring the change in fluorescence signal as the exchanged free BODIPY-GDP has a reduced fluorescence compared to Rap1-bound BODIPY-GDP. […] in signal (activation) is the desired outcome for the EPAC2 agonist while no activity in this assay is desired for the EPAC1 agonist counterscreen.
[1] de Rooij, J., Zwartkruis, F. J., Verheijen, M. H., Cool, R. H., Nijman, S. M., Wittinghofer, A., and Bos, J.L. (1998) Nature 396, 474-477
[2] Kawasaki, H., Springett, G. M., Mochizuki, N., Toki, S., Nakaya, M., Matsuda, M., Housman, D. E., and Graybiel, A. M. (1998) Science 282, 2275-2279
NIH Chemical Genomics Center [NCGC]
NIH Molecular Libraries Probe Centers Network [MLPCN]
Assay Submitter (PI): Xiaodong Cheng, The University of Texas, Medical Branch
Briefly, three uL of reagents (100 nM EPAC2, 250 nM RAP1B-BODIPY-GDP, 50 uM GDP) were dispensed into a 1536-well Greiner black solid-bottom medium binding assay plate. Controls and test compounds (23 nL) were transferred to the plate via a Kalypsys pin tool equipped with a 1536-pin array. The plates were centrifuged at 1,000 rpm for 15 seconds followed by 5 minute incubation at room temperature. The assay plates were read at 5 minute intervals for 30 minutes in the ViewLux plate reader using 480nm excitation and 540nm emission filters. The results were normalized to the agonist positive control of 6.5 mM cAMP.
In general terms: Quantitative high-throughput screening tests each substance at several concentrations.
As to `O=[N+]([O-])c1cc([N+](=O)[O-])c(Nc2ccc(Cl)cc2)c([N+](=O)[O-])c1`, the activation was inactive: 2.31%. Take `COc1ccc(C(c2nnnn2C2CCCC2)N2CCC(n3c(=O)[nH]c4ccccc43)CC2)cc1` (stereo unspecified): the activation is inactive: 1.23%. As to `CCCOc1ccc(C(=O)NCC2(N(C)C)CCCCC2)cc1OC`, the activation is inactive: 1.94%. In the case of `Cc1ccc(C(=O)NCC2(N(C)C)CCCCC2)o1`, the activation was inactive: -6.65%.

Turning to `O=C(OC1CN2CCC1CC2)c1ccc([N+](=O)[O-])cc1` (stereo unspecified), the activation was inactive: 2.25%.

For `CN1CCC(Nc2cccc(F)c2)CC1`, the activation is inactive: -2.64%. The same measure for `O=C(NCC1(N2CCCCC2)CCCCC1)c1cncc(Br)c1`: inactive: -5.87%; for `COc1ccc2c(c1O)-c1c(O)c(OC)cc3c1[C@H](C2)[N+](C)(C)CC3.O=[N+]([O-])c1cc([N+](=O)[O-])c([O-])c([N+](=O)[O-])c1[O-]`: inactive: 9.45%.

For the molecule `CCC(c1nnnn1C(C)(C)C)N1CCC(n2c(=O)[nH]c3ccccc32)CC1` (stereo unspecified), the activation was inactive: -16.8%. Turning to `O=C(NCC1(N2CCOCC2)CCCCC1)c1cc(F)c(F)cc1Cl`, the activation was inactive: -1.96%.

Regarding `CCN(CC)CCCNc1ccccc1[N+](=O)[O-].O=[N+]([O-])c1cc([N+](=O)[O-])c(O)c([N+](=O)[O-])c1`, the activation is inactive: 4.24%. In the case of `COc1cc(OC)c(C(=O)NCC2(N(C)C)CCCCC2)cc1OC`, the activation was inactive: 6.72%.

As for `CCCCn1nnnc1C(c1ccnc2ccccc12)N1CCC(n2c(=O)[nH]c3ccccc32)CC1` (stereo unspecified), the activation is inactive: 8.72%. As for `CC(C)c1ccc(NC2CCN(C(=O)OC(C)(C)C)CC2)cc1`, the activation was inactive: -2.82%.

On to `CCCCn1nnnc1C(c1ccccc1OC(F)(F)F)N1CCC(n2c(=O)[nH]c3ccccc32)CC1` (stereo unspecified), for which the activation is inactive: -12.9%. On to `O=[N+]([O-])c1cc([N+](=O)[O-])c(OC2CCCCC2O)c([N+](=O)[O-])c1` (stereo unspecified), for which the activation is inactive: 0.842%. To `CN(C)c1cccc(C(=O)NCC2(N3CCCCC3)CCCCC2)c1` belongs inactive: -4.72%.

Regarding `COc1ccc(CN(CCCl)CCCl)cc1Cl`, the activation was inactive: -2.09%. To `COc1cc(C(=O)NCC2(N3CCCCC3)CCCCC2)ccc1OC(F)F` belongs inactive: -3.7%; to `O=C(NCC1(N2CCOCC2)CCCCC1)c1cc(=O)[nH]c2ccccc12`, inactive: 12.6%; to `CN1CCN(CCOC(=O)C(O)(c2ccccc2)c2ccccc2)CC1`, inactive: 7.38%. The same measure for `COc1ccc(NC2CCN(C(=O)OC(C)(C)C)CC2)cc1`: inactive: 2.92%. As to `CC(C)c1ccc(C(=O)NCC2(N3CCOCC3)CCCCC2)cc1`, the activation is inactive: 21.3%. Regarding `CCCCn1nnnc1C(c1cccc2ccccc12)N1CCC(n2c(=O)[nH]c3ccccc32)CC1` (stereo unspecified), the activation was inactive: 3.34%. For `O=[N+]([O-])c1cc([N+](=O)[O-])c(NCC2CCS(=O)(=O)C2)c([N+](=O)[O-])c1` (stereo unspecified), the activation is inactive: -1.8%. To `O=C(NCC1(N2CCCCC2)CCCCC1)c1cccc(C(F)(F)F)c1` belongs inactive: 8.78%; to `O=c1[nH]c2ccccc2n1C1CCN(C(c2ccccc2OC(F)(F)F)c2nnnn2C2CCCC2)CC1` (stereo unspecified), inactive: -19.3%.

For the molecule `N#CC1(Nc2ccccc2)CCN(CCc2ccccc2)CC1`, the activation was inactive: 0.482%. To `CCN1CCC(Nc2ccc(Cl)cc2)CC1` belongs inactive: -3.35%; to `CSc1ccc(C(=O)NCC2(N3CCOCC3)CCCCC2)cc1`, inactive: 9.46%; to `O=C(NCC1(N2CCCCC2)CCCCC1)c1cccc([N+](=O)[O-])c1`, inactive: 10.5%. To `O=C(NCC1(N2CCCCC2)CCCCC1)c1ccc(OC(F)F)cc1` belongs inactive: 13.5%; to `CC(C)(C)n1nnnc1C(c1ccccc1OC(F)(F)F)N1CCC(n2c(=O)[nH]c3ccccc32)CC1` (stereo unspecified), inactive: 11.5%. With `CCOC(=O)N1CCC(Nc2cccc(C)c2)CC1`, the activation is inactive: 4.49%. Consider `COc1cc(C(=O)NCC2(N(C)C)CCCCC2)ccc1OC(F)F`, for which the activation was inactive: 6.82%. For `O=c1[nH]c2ccccc2n1C1CCN(C(c2cccc3ccccc23)c2nnnn2C2CCCC2)CC1` (stereo unspecified), the activation was inactive: 4.53%. Turning to `O=c1[nH]c2ccccc2n1C1CCN(C(c2ccccc2)c2nnnn2C2CCCCC2)CC1` (stereo unspecified), the activation is inactive: 5.06%. Take `COc1ccc(NC2CCN(CCc3ccccc3)CC2)c(OC)c1`: the activation is inactive: 3.9%. To `CCOC(=O)N1CCC(Nc2ccc(F)cc2)CC1` belongs inactive: 12.9%; to `O=P1(N(CCCl)CCCl)SCCCS1`, inactive: 6.99%; to `CCCCn1nnnc1C(c1cc2ccccc2o1)N1CCC(n2c(=O)[nH]c3ccccc32)CC1` (stereo unspecified), inactive: 1.61%. The same measure for `CCCCOc1ccc(C(=O)NCC2(N3CCOCC3)CCCCC2)cc1`: inactive: -6.13%. To `O=C(NCC1(N2CCCCC2)CCCCC1)c1ccc(F)cc1` belongs inactive: 6.3%; to `O=C1CCN(Cc2ccccc2)CC1`, inactive: 2.82%. Consider `CC(C)(C)n1nnnc1C(c1ccccc1)N1CCC(n2c(=O)[nH]c3ccccc32)CC1` (stereo unspecified), for which the activation is inactive: 3.97%. The same measure for `CCOc1ccc(C)cc1CN(CCCl)CCCl`: inactive: 2.23%.
